Source: PubChem
Hits are enriched below; roughly 1.5% of the tested compounds scored in any of these assays.
FN deposit inh = fibronectin deposition inhibition; inhibition, % at 12.6 µM; AH1F fibroblasts, Alexa488-fibronectin deposition fluorescence, overnight; 0.086% of 350,000 active;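 active means mean inhibition across replicates of 30% or more, regardless of how many single replicates reach that level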;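 further: positive control wells lacked labelled fibronectin entirely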
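Assay system: AH1F fibroblasts / Quantity: 10000 cells per well / Medium: DMEM plus 2% serum, read in PBS / Reagent: labelled fibronectin 24 nM / Dosing: single dose, pinned / Times: 1 h cell attachment, overnight exposure to compound and label / Signal: fluorescence, ex 485 nm, em 525 nm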
Cneo AK release = causes C. neoformans cell lysis. adenylate kinase release luminescence, 4 h; normalised: neutral wells 0, clomiphene wells 100. lysis activity, % at 15 µM. 0.2% of 360,000 active;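 active means mean lysis activity across replicates of at least 80%, whatever share of replicates individually reach that level; inactive means mean lysis activity below 80%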
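Assay system: C. neoformans cells. Amount: yeast cell density of 5 × 10^6 cells/mL. Technique: AK luminescence. Buffer or medium: YPD. Times: static 4 h at 37 °C with compound, 1 h detection. Dosing: single-point compound dose. Read-out: lysis from increased AK signal.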
Env fusion inh = inhibitors of HIV Env-mediated cell fusion | HeLa-JRFL Env/CEM21 cell fusion, luciferase | inhibition, % at 12.3 µM | 1.1% of 360,000 active;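 active means mean replicate inhibition score of at least 50 and every replicate individually at or above 50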;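 further: 0% = plate neutral controls and 100% = maraviroc near 300 nM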
Yeast UUG start = alters start codon recognition fidelity in yeast; S. cerevisiae UUG-firefly luciferase reporter, luminescence/redox ratio; activity score, % at 18.7 µM; actives 0.13% (n = 350,000); AID 602363;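 active = replicate mean at a twofold rise or more, about +100% in these data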;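 also: firefly luciferase made from a UUG start codon reports start codon fidelity; reporter light over untreated wells divided by growth signal over untreated wells; some hits fall short of that in this replicate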
miR-122 sensor = blocks miR-122 activity in Huh7 sensor cells | Huh7 miR-122 Renilla luciferase sensor, 48 h; neutral wells = 0, positive control = 100 | 0.3% of 340,000 active | AID 602342 | activation (reporter increase), % at 12.5 µM;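 active means mean replicate activation score at least 90 and every replicate individually at or above 90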;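 further: higher luciferase means less miR-122 activity so hits act as miR-122 inhibitors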
PGC1a acetyl inh = lowers PGC1a acetylation signal in U2OS cells; AlphaScreen anti-acetyl-lysine; with virally co-expressed GCN5 acetyltransferase; inhibition, % at 15.6 µM; 0.17% of 350,000 active;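 active means every replicate shows inhibition of at least 40%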;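 further: 0% = neutral control wells and 100% = positive control wells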
Numbers without * were called inactive; [ ] = remark or other dose.

What do the screens show for `CC(C)NC(=O)Nc1ccc2c(c1)C(=O)N([C@H](C)CO)C[C@@H](C)[C@@H](CN(C)C(=O)NC(C)C)OCCCC[C@@H](C)O2`?
FN deposit inh: 2; Cneo AK release: 0; Env fusion inh: 19[16.7 µM]; miR-122 sensor: -2[16.7 µM]; PGC1a acetyl inh: 9

What do the screens show for `Cc1noc(C)c1NC(=O)Nc1ccc2c(c1)C(=O)N([C@H](C)CO)C[C@@H](C)[C@H](CN(C)C(=O)Nc1ccc(F)cc1)OCCCC[C@@H](C)O2`?
FN deposit inh: 3; Cneo AK release: 99*; Env fusion inh: 8[16.7 µM]; Yeast UUG start: 25; miR-122 sensor: 6[16.7 µM]; PGC1a acetyl inh: -7

Results for CC(C)NC(=O)Nc1ccc2c(c1)C(=O)N([C@H](C)CO)C[C@H](C)[C@@H](CN(C)C(=O)NC(C)C)OCCCC[C@H](C)O2 ?
FN deposit inh: -7; Cneo AK release: 113*; Env fusion inh: -5[16.7 µM]; miR-122 sensor: 28[16.7 µM]

Results for CC(C)NC(=O)Nc1ccc2c(c1)C(=O)N([C@@H](C)CO)C[C@@H](C)[C@@H](CN(C)C(=O)Nc1ccc(F)cc1)OCCCC[C@@H](C)O2 ?
FN deposit inh: 13; Cneo AK release: 0; Env fusion inh: 80*[16.7 µM]; Yeast UUG start: -6; miR-122 sensor: -2[16.7 µM]; PGC1a acetyl inh: 17

How did COc1ccc(NC2CCCN(C(=O)COc3ccc(Cl)cc3C)C2)cc1OC (stereo not given) do in these assays?
Cneo AK release: 0; Env fusion inh: 9; Yeast UUG start: -2

Results for COC(=O)c1c(NC(=O)Cn2cc([N+](=O)[O-])cn2)sc2c1CCC2 ?
Cneo AK release: -3; Yeast UUG start: -12; miR-122 sensor: 0; PGC1a acetyl inh: -4

What do the screens show for `CCOC(=O)c1cccc(NC(=O)CSc2nc3cccnc3n2C)c1`?
FN deposit inh: 2; Cneo AK release: 3; Env fusion inh: 62*; Yeast UUG start: -5; miR-122 sensor: -6; PGC1a acetyl inh: -2

How did CCC(=O)Nc1ccc2c(c1)C(=O)N(C)C[C@@H](OC)[C@@H](C)CN(Cc1ccncc1)[C@@H](C)CO2 do in these assays?
FN deposit inh: -5; Cneo AK release: -1; Env fusion inh: 18[16.7 µM]; PGC1a acetyl inh: 7

What do the screens show for `S=C1NC2(CCCCCC2)NN1c1ccccc1`?
FN deposit inh: 4; Env fusion inh: 55*

Results for O=C(C[C@@H]1C[C@H]2c3cc(NC(=O)C4CCC4)ccc3O[C@H]2[C@@H](CO)O1)NCc1cccc(F)c1 ?
Cneo AK release: -1; Env fusion inh: 5[16.7 µM]; miR-122 sensor: 5[16.7 µM]; PGC1a acetyl inh: -5

How did O=C(C[C@H]1C[C@@H]2c3cc(NC(=O)CC4CC4)ccc3O[C@@H]2[C@@H](CO)O1)NCc1cccc(F)c1 do in these assays?
FN deposit inh: -2; Cneo AK release: 91*; Yeast UUG start: 16; miR-122 sensor: 1[16.7 µM]; PGC1a acetyl inh: 10

What do the screens show for `O=C(C[C@H]1C[C@H]2c3cc(NC(=O)CC4CC4)ccc3O[C@H]2[C@@H](CO)O1)NCc1cccc(F)c1`?
FN deposit inh: -3; Cneo AK release: 1; Yeast UUG start: -6; miR-122 sensor: 0[16.7 µM]; PGC1a acetyl inh: 0

Copied from the entries so far for reference:
Results for CC(C)NC(=O)Nc1ccc2c(c1)C(=O)N([C@H](C)CO)C[C@H](C)[C@@H](CN(C)C(=O)NC(C)C)OCCCC[C@H](C)O2 ?
FN deposit inh: -7; Cneo AK release: 113*; Env fusion inh: -5[16.7 µM]; miR-122 sensor: 28[16.7 µM]

Results for CC(C)NC(=O)Nc1ccc2c(c1)C(=O)N([C@@H](C)CO)C[C@@H](C)[C@@H](CN(C)C(=O)Nc1ccc(F)cc1)OCCCC[C@@H](C)O2 ?
FN deposit inh: 13; Cneo AK release: 0; Env fusion inh: 80*[16.7 µM]; Yeast UUG start: -6; miR-122 sensor: -2[16.7 µM]; PGC1a acetyl inh: 17

Additional entries.
What do the screens show for `O=C(C[C@@H]1C[C@@H]2c3cc(NC(=O)C4CCC4)ccc3O[C@@H]2[C@H](CO)O1)NCc1cccc(F)c1`?
Cneo AK release: 86*; Env fusion inh: 11[16.7 µM]; miR-122 sensor: 31[16.7 µM]; PGC1a acetyl inh: -4

How did O=C(C[C@H]1C[C@H]2c3cc(NC(=O)C4CCC4)ccc3O[C@H]2[C@@H](CO)O1)NCc1cccc(F)c1 do in these assays?
Cneo AK release: 94*; Env fusion inh: 1[16.7 µM]; miR-122 sensor: 5[16.7 µM]; PGC1a acetyl inh: 3

How did CCOc1ccc(N(C)S(=O)(=O)c2ccc(C)c(C(=O)OCC(=O)c3c[nH]c4ccccc34)c2)cc1 do in these assays?
FN deposit inh: 5; Env fusion inh: 58*

How did Cc1cccc(-n2c(CCn3nc(C)c([N+](=O)[O-])c3C)n[nH]c2=S)c1 do in these assays?
Cneo AK release: 2; Yeast UUG start: -18; miR-122 sensor: 2; PGC1a acetyl inh: 14
